Only some compounds are listed: those with a hit (about 3.7% of all), similar ones and a draw of the others.
Nrf2 ARE act – activators of Nrf2 (ARE) signaling | AREc32 ARE-luciferase reporter (MCF7-derived line), luminescence, 24 h | Potency, µM (highest dose often 46.1 µM), inactives show top-dose activation, actives largely listed as activators | 0.31% of 410,000 active | AID 624171; also: potency is read from the fitted curve at half-maximal effect; % of control where 0% means no effect; nearly all actives have a fitted effect of over 65% in size
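Each well held 1000 AREc32 cells, which were incubated with compound for 24 hr at 37 deg C after overnight attachment, and ARE reporter activity was quantified by firefly luciferase luminescence.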
A549 viability – A549 cytotoxicity, counter-screen for Nrf2 inhibitors; 0.16% of 390,000 active; Potency, µM (highest dose often 46 µM), without a hit: at the top dose activity change, negative = cytotoxicity, usual class: inhibitors; A549 ARE-Fluc cells, CellTiter-Fluor viability, 18-24 h; also: potency is read from the fitted curve at half-maximal effect; % is scaled to controls: 0 for no effect and ±100 for the full control effect
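A549 ARE_Fluc cells in 5% FBS OPTI-MEM were exposed to compounds in concentration-response for 18-24 h at 37 deg C. Viability was read by CellTiter-Fluor fluorescence (Ex 405/Em 525) after 30 min, before the luciferase read.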
ClpP mod – qHTS Assay for Activators of ClpP; ATP-dependent Clp protease proteolytic subunit (Bacillus subtilis (strain 168)), P80244; Potency, µM (titrated, usually from 57.5 µM), inactives show at the top dose activity change, negative = active; purified B. subtilis ClpP, FRET peptide cleavage, 20 min; 1.9% of 340,000 active; active = well fitted falling curve with a large enough effect; inconclusive = small, poorly fitted or top-dose-only effect; inactive = no such curve, though single readings can be large or run the other way; also: potency is read from the fitted curve at half-maximal effect; the source files actives as falling curves though it sought activators and does not explain the sign; nearly all actives have a fitted effect of over 65% in size
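Buffer: 100 mM Tris/HCl pH8, 100 mM KCl, 0.05% low protease BSA, 2.5% glycerol, 0.01% Tween-20. ClpP 10 microg/mL final; 20 min RT; delta FRET normalized to ADEP and DMSO controls.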
miR-21 reporter – miR-21 reporter, rising signal; Potency, µM (titrated, usually from 38.3 µM), without a hit: at the highest dose reporter change, positive = more light; AID 2288; 340,000 tested, under 10 active; HeLa miR-21 FLuc reporter, luciferase, 48 h; active = well fitted rising curve with a large enough effect; inconclusive = small, poorly fitted or top-dose-only effect; inactive = no such curve, though single readings can be large or run the other way;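 note: % of control where 0% means no effect; miR-21 action dims this reporter so a rising signal means less miR-21 action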
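Luminescence from a firefly luciferase reporter carrying a miR-21 binding site downstream, stably expressed under a CMV promoter in HeLa cells that make miR-21 endogenously, reports miRNA modulation after 48 h compound exposure up to approximately 40uM final.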
Nrf2 block – blocks Nrf2 signaling. A549 ARE-Fluc reporter, luciferase luminescence, 18-24 h. Potency, µM (titrated, usually from 46 µM), inactives show at the highest dose activity change, negative = inhibition, usual class: inhibitors. 2.1% of 360,000 active; also: potency is read from the fitted curve at half-maximal effect; % is scaled to controls: 0 for no effect and ±100 for the full control effect; nearly all actives have a fitted effect of over 60% in size
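Nrf2 activity is the BugLite luminescence, read 15 min after reagent at room temperature, following CellTiter-Fluor cytotoxicity readout (30 min, 37C). Compound titrations were applied for 18-24 h to 5000 A549 ARE_Fluc cells/well in 5% FBS OPTI-MEM.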
IL2 activator – activators of IL-2. activation, % (series mostly up to about 46 µM). 0.065% of 360,000 active. IL-2 activation reporter assay, cell-based qHTS; stimulated with anti-CD3/CD4/CD28 beads; in transgenic mouse T cells. AID 652025; in the data active = activation above about 50%; inconclusive = mostly about 30% to 49%; also: 0% is about no effect
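Readout: EGFP and DsRed signals by fluorescent plate cytometry. Unstimulated transgenic mouse T cells received compound 60 min before antibody-bead stimulation, then incubated 18 h at 37 degrees C.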
Numbers without * were called inactive. Unless noted, calls follow the shape of the dose curve; as a rule, active = well fitted curve in the direction sought with a large enough effect; inconclusive = small, poorly fitted or top-dose-only effect, or another doubt; inactive = no such curve, though single readings can be large; an effect the other way counts as inactive or inconclusive.

The chains behind the UniProt entries cited, without tags or fusion partners.
ATP-dependent Clp protease proteolytic subunit (Bacillus subtilis (strain 168)), P80244, UniProt P80244, whole entry, looked up: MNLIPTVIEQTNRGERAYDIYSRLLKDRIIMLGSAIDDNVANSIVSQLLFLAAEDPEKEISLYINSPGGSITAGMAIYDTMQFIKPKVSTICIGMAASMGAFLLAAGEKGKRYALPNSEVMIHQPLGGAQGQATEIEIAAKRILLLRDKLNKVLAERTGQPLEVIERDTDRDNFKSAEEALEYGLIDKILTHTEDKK

The opening two compounds (preview)
CCCCNC(=O)CSC1=Nc2ccccc2C2=NC(CCC(=O)NCc3ccccc3OC)C(=O)N12 (centres undefined) was read as Nrf2 ARE act -0.6%, A549 viability 2.2%, ClpP mod -26.9% and miR-21 reporter 6.0%.
For CCCCNC(=O)CC1N=C2c3ccccc3N=C(SCC(=O)NCc3ccccc3Cl)N2C1=O (centres undefined) the results were Nrf2 ARE act 0.7%, A549 viability -14.5%, ClpP mod 17.8µM*, miR-21 reporter 2.5% and Nrf2 block -6.6%.

Main list, from the first entry:
CCCCNC(=O)CSC1=Nc2ccccc2C2=NC(CCC(=O)NCc3ccccc3OC)C(=O)N12 (centres undefined) was read as Nrf2 ARE act -0.6%, A549 viability 2.2%, ClpP mod -26.9% and miR-21 reporter 6.0%.
For CCCCNC(=O)CC1N=C2c3ccccc3N=C(SCC(=O)NCc3ccccc3Cl)N2C1=O (centres undefined) the results were Nrf2 ARE act 0.7%, A549 viability -14.5%, ClpP mod 17.8µM*, miR-21 reporter 2.5% and Nrf2 block -6.6%.
For O=C(CC1N=C2c3ccccc3N=C(SCc3cccc(Cl)c3)N2C1=O)NC1CCCCC1 (centres undefined) the results were Nrf2 ARE act 5.4%, A549 viability -6.0%, ClpP mod 35.5µM* and miR-21 reporter 2.1%.
CCc1ccccc1NC(=O)Nc1c[nH]c(=O)[nH]c1=O was read as Nrf2 ARE act -0.7%, A549 viability -7.1%, ClpP mod -1.4%, miR-21 reporter -1.1% and Nrf2 block 9.7%.
For O=C(NCCc1ccccc1)c1cc(Sc2ccc(F)cc2F)nc2ccccc12 the results were Nrf2 ARE act 4.2%, A549 viability 4.3%, ClpP mod 31.5% and miR-21 reporter -0.2%.
CCN(C(=O)c1sc2nc3n(c(=O)c2c1C)CCCC3)c1ccccc1F was read as Nrf2 ARE act 8.4%, A549 viability 11.9%, ClpP mod 0.1%, miR-21 reporter -8.0% and Nrf2 block -9.9%.
`COc1cc2c(NC3CCN(C)CC3)nc(N3CCCN(C)CC3)nc2cc1OCc1ccccc1` gave ClpP mod 4.3%.
For Cc1cccc(CNC(=O)c2ccccc2N)c1 the results were Nrf2 ARE act 0.8%, A549 viability -17.3%, ClpP mod 8.91µM*, miR-21 reporter -22.5%, Nrf2 block 2.7% and IL2 activator 1.6.
For Cc1ccc(CNC(=O)c2ccccc2N)cc1 the results were Nrf2 ARE act -0.4%, A549 viability 0.6%, ClpP mod 28.2µM*, miR-21 reporter -20.1%, Nrf2 block -0.4% and IL2 activator -2.0.
O=S(=O)(NCC(c1ccco1)S(=O)(=O)c1cccs1)c1ccc(F)c(C(F)(F)F)c1 (centres undefined) was read as Nrf2 ARE act 26.6%, A549 viability 11.0%, ClpP mod -0.4% and miR-21 reporter 8.6%.
For Cc1cc2c(s1)c1cnn(Cc3cc(F)cc(F)c3)c(=O)c1n2C the results were A549 viability -1.8% and Nrf2 block 15.4%.
`O=[N+]([O-])c1ccc2c(c1)C=CC2` gave ClpP mod 0.1%.
For O=C(Nc1ccccc1F)c1ccc(-c2cccc([N+](=O)[O-])c2)o1 the results were Nrf2 ARE act 1.41µM*, A549 viability -1.2%, ClpP mod -0.3%, miR-21 reporter -49.6%, Nrf2 block inconclusive and IL2 activator -1.6.
COc1ccc(C2Nc3ccccc3NC3=C2C(=O)CC(C)(C)C3)cc1 (centres undefined) was read as Nrf2 ARE act inconclusive, A549 viability -8.3%, ClpP mod -0.8%, miR-21 reporter -31.9%, Nrf2 block inconclusive and IL2 activator -2.8.
Screening CSC1=C(C#N)C(c2ccc(Cl)cc2)C2=C(CC(C)(C)CC2=O)N1 (centres undefined) returned Nrf2 ARE act 0.4%, A549 viability -4.4%, ClpP mod -3.8%, miR-21 reporter -3.3%, Nrf2 block inconclusive and IL2 activator -0.1.
COc1cccc(C2C(C#N)=C(C)NC3=C2C(=O)CC(C)(C)C3)c1 (centres undefined) was read as Nrf2 ARE act 0.5%, A549 viability -3.6%, ClpP mod 25.1µM*, miR-21 reporter -9.3%, Nrf2 block -15.1% and IL2 activator -0.6.
COc1cccc(C2C(C#N)=C(N)N(N(C)C)C3=C2C(=O)CC(C)(C)C3)c1 (centres undefined) was read as Nrf2 ARE act 0.5%, A549 viability -2.1%, miR-21 reporter -1.6%, Nrf2 block -1.3% and IL2 activator -0.3.
For CCCSC1=C(C#N)C(c2ccc(OC)cc2)C2=C(CC(C)(C)CC2=O)N1 (centres undefined) the results were Nrf2 ARE act 0.1%, A549 viability -28.6%, ClpP mod -15.4%, miR-21 reporter 9.8%, Nrf2 block 23.1µM* and IL2 activator -3.5.
COc1ccc(C2C(C#N)=C(C)NC3=C2C(=O)CC(C)(C)C3)cc1 (centres undefined) was read as Nrf2 ARE act -0.3%, A549 viability -11.9%, ClpP mod 28.2µM*, miR-21 reporter -0.3%, Nrf2 block 13.3% and IL2 activator 1.2.
O=c1c2c(nc3c(-c4cccc5ccccc45)c[nH]n13)CCC2 was read as Nrf2 ARE act -0.3%, A549 viability 5.1%, ClpP mod 11.2µM*, miR-21 reporter -0.7%, Nrf2 block -18.1% and IL2 activator -1.0.
For Cc1ccc2cccc(OCC(=O)NCc3ccco3)c2n1 the results were Nrf2 ARE act 11.1%, ClpP mod -9.2%, miR-21 reporter 3.1%, Nrf2 block 2.3% and IL2 activator 0.5.
`Cc1ccc2cccc(SCC(=O)NCc3ccco3)c2n1` gave Nrf2 ARE act 6.3%, A549 viability -5.3%, ClpP mod 14.1µM*, miR-21 reporter -6.1%, Nrf2 block 5.7% and IL2 activator -3.1.
Cc1nnc(SCC(=O)N2CCOCC2)c2ccccc12 was read as Nrf2 ARE act inconclusive, A549 viability 0.8%, ClpP mod 1.5%, miR-21 reporter -20.3%, Nrf2 block 9.2µM* and IL2 activator 1.4.
Cc1ccc2cccc(SCC(=O)N3CCOCC3)c2n1 was read as Nrf2 ARE act 3.2%, A549 viability -1.2%, ClpP mod 28.2µM*, miR-21 reporter -6.0% and IL2 activator 0.1.
Cc1ccccc1C(=O)Nc1cccc(-c2nc3cccnc3s2)c1 was read as Nrf2 ARE act 7.2%, A549 viability 3.2%, ClpP mod inconclusive, miR-21 reporter 1.3% and Nrf2 block -23.9%.
For Cc1cccc(-c2nnc(-c3cccc(NC(=O)Cc4cccs4)c3)o2)c1 the results were Nrf2 ARE act 3.7%, A549 viability inconclusive, ClpP mod inconclusive, miR-21 reporter -16.9%, Nrf2 block 20.6µM* and IL2 activator -0.9.

For convenience, some entries already given.
Cc1ccccc1C(=O)Nc1cccc(-c2nc3cccnc3s2)c1 was read as Nrf2 ARE act 7.2%, A549 viability 3.2%, ClpP mod inconclusive, miR-21 reporter 1.3% and Nrf2 block -23.9%.
For Cc1cccc(-c2nnc(-c3cccc(NC(=O)Cc4cccs4)c3)o2)c1 the results were Nrf2 ARE act 3.7%, A549 viability inconclusive, ClpP mod inconclusive, miR-21 reporter -16.9%, Nrf2 block 20.6µM* and IL2 activator -0.9.
